ChEMBL document CHEMBL4270513, “Replacement of Arg with Nle and modified D-Phe in the core sequence of MSHs, Ac-His-D-Phe-Arg-Trp-NH2, leads to hMC1R selectivity and pigmentation” (Eur J Med Chem, 2018)

Protein sequences, listed by entry. Tags and fused reporters are not part of them.
UniProt P32245, whole entry: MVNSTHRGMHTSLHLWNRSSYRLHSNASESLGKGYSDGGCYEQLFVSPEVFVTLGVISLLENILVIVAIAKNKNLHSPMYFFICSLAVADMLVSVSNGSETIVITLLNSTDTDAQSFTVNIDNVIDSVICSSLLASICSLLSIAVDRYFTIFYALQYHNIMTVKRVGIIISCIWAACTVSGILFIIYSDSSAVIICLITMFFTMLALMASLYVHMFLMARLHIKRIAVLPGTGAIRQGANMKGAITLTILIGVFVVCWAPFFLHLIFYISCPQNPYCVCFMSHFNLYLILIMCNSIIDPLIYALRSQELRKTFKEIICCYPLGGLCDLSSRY

Assays:
Melanocortin receptor 4 [1] = biological target: T1, Melanocortin receptor 4 (Homo sapiens, UniProt P32245); test: Displacement of [125I]-[Nle4,d-Phe7]-alpha-MSH from human MC4R expressed in HEK293 cells after 40 mins by gamma counting analysis; format: cell-based
Melanocortin receptor 4 [2] = biological target: T1, Melanocortin receptor 4; test: Agonist activity at human MC4R expressed in HEK293 cells after 3 mins by cAMP assay; format: functional, cell-based

Q: Which IC50 (Melanocortin receptor 4 [1]) does the source give for CC(=O)N[C@@H](Cc1cnc[nH]1)C(=O)N[C@H](Cc1ccccc1)C(=O)N[C@@H](CCCN=C(N)N)C(=O)N[C@@H](Cc1c[nH]c2ccccc12)C(N)=O here?
A: 359 nM

Q: What about the EC50 (Melanocortin receptor 4 [2]) of the same molecule?
A: 548 nM
